Binding of CDR-mutated scFvs to a peptide of the spike HR2 region

Reference: Li et al. 2023, doi:10.1038/s41467-023-39022-2. File: FLAb, binding data.

Binding partner: SARS-CoV-2 spike HR2 peptide, sequence PDVDLGDISGINAS.

Parent: Ab-14, a human scFv built as VH, the linker GGGGSGGGGSGGGGS, VL. Only the CDRs of the light chain vary.
VH: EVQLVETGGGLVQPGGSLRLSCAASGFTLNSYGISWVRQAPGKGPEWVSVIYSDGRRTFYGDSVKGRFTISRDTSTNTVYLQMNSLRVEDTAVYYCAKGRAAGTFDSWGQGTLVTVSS
VL: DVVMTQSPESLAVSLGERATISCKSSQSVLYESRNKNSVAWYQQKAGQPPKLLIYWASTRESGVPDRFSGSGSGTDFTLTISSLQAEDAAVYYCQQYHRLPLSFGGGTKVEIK

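The starting antibody came from a phage panning campaign against this peptide. Designed CDR sequences, proposed from the first random library and measured here. Group labels follow the data file (Ctrl: baseline library sampled from a position-specific scoring matrix, with some repeated check sequences; En: ensemble of fine-tuned language models; GP: Gaussian process model; HC: hill climbing; Gen: genetic algorithm; Gibbs: Gibbs sampling; a sequence that several methods proposed may carry one label only). Affinity was read by AlphaSeq, a pooled yeast mating assay with surface-displayed partners. Binding brings cells together so that they mate, and sequencing counts the barcode pairs among the diploids. Scores were corrected for input abundance and mapped to Kd with protein pairs of known affinity run in the same pool. The assay was run in six technical replicates.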

Each variant is given by its three light chain CDRs, as the data file delimits them; those of the parent are KSSQSVLYESRNKNSVA, WASTRES, QQYHRLPLS. Numbers give log10(Kd / nM), so 0 is 1 nM and 3 is 1 µM. Smaller is tighter. Averages over replicates are reported, and they cover detected replicates only. "nd" means that the variant was in the library but no mating with the target was seen in that replicate; the authors take this as a sign of poor binding, and no number exists. Nonspecific signal, from three strains lacking the peptide, appeared in 4% of pairings of all light chain designs, centred on 2.64 (5% of these signals below 1.59); values are not corrected for it.

| # | CDR-L1 | CDR-L2 | CDR-L3 | group | log10 Kd, replicates | mean log10 Kd (nM) |
|---|---|---|---|---|---|---|
| 1 | KLSQSVPYESRNKNSVA | NASTRES | QQYHRLPLS | GP_Gen | -0.09 -0.20 -0.09 -0.35 -0.38 -0.14 | -0.21 |
| 2 | KLSQSELYESRNKNSVA | HASTRLS | QQYHRLPLS | GP_Gen | 0.37 0.12 0.47 0.04 0.18 0.36 | 0.26 |
| 3 | KYSFSYLNGSRNKNSVA | EASTRES | QQYHRLPLS | GP_Gibbs | 0.49 0.29 0.33 0.61 0.45 0.53 | 0.45 |
| 4 | KVSQSMEYQSRNKNNVA | NASQREQ | QSYHRLPLS | GP_Gibbs | -0.12 -0.32 -0.61 -0.43 -0.35 -0.22 | -0.34 |
| 5 | NVGGEDPGQWYMKDSIA | GSSLRAE | QQYWRLPLM | En_Gibbs | 0.53 0.28 0.20 0.11 -0.15 0.25 | 0.20 |
| 6 | KFQQSQEYESRNKNSVA | HASTRES | QQYHRLPLS | GP_HC | 0.32 0.25 0.35 0.48 0.17 0.19 | 0.29 |
| 7 | KFQQSDPYESRNKNSVA | EASTRSS | QQYHRLPLS | GP_Gibbs | -0.06 0.19 0.19 -0.05 0.03 0.35 | 0.11 |
| 8 | KSSISGLYESRMKNSVA | EASTREL | QQYHRLPLS | GP_HC | 0.57 0.81 0.73 0.66 0.75 1.00 | 0.75 |
| 9 | KVNGLMNIEQMNSKSVA | HSSTREN | QQYHRLPLS | En_HC | 0.55 0.66 0.58 0.30 0.41 0.71 | 0.54 |
| 10 | KIQQSVYYEDRNKNSVA | SASTRCS | QQYHRLPLS | GP_Gibbs | -0.11 0.35 0.26 -0.08 0.24 -0.09 | 0.09 |
| 11 | KSSKSELFESRNKNSVA | NASTRES | QQYHRLPLS | GP_HC | -0.16 -0.25 -0.36 -0.38 -0.32 -0.28 | -0.29 |
| 12 | QLQLQPLFGANAQSSIA | DVSEADM | QQYARLPLH | En_Gibbs | nd nd nd 1.46 nd nd | 1.46 |
| 13 | KSLQSQDYESRNKNSVA | HASTRED | QQYHCLPLS | GP_HC | 0.86 1.01 1.16 0.81 1.02 1.09 | 0.99 |
| 14 | KLSQQGHYGSRNANNVA | NASQREQ | QQYHRLPLS | GP_Gibbs | 0.49 -0.05 0.02 0.25 -0.02 0.31 | 0.17 |
| 15 | KQSQSAEYESGNKNSVA | WASTRES | NQYHRLPLW | Ctrl | nd nd nd nd nd nd | nd |
| 16 | KLQQSVLYESRNKNSVA | GASTRES | QQYHRLPLS | GP_Gen | 0.09 0.08 -0.44 0.02 0.05 0.03 | -0.03 |
| 17 | KSSQSVLYESRNKNSVA | AATTRES | QQYHRLPLS | Ctrl | 0.29 1.16 0.53 0.48 0.71 0.66 | 0.64 |
| 18 | KSSQSVLYESRNKNSVA | WGSTRES | QTYHRLPLS | Ctrl | nd 2.15 nd 1.60 2.48 2.33 | 2.14 |
| 19 | NVGQSMDGESRNHNSVA | HQSTRED | QHYHRLPLS | En_HC | 1.16 1.21 1.43 1.19 1.24 1.35 | 1.26 |
| 20 | KLQQSWLYESRNKNNVA | HASTRES | QQYHRLPLS | GP_Gen | 0.28 0.25 0.02 -0.06 0.20 0.25 | 0.16 |
| 21 | IVSQLMIWGMHAKNSIA | EAETRGN | QQYDRLPLF | En_Gen | 1.56 1.78 1.59 0.95 2.45 1.83 | 1.69 |
| 22 | SLYENYQMGGLHTNAIA | DANQMMR | QHYNRLPLA | En_Gibbs | 0.81 0.05 -0.36 0.06 0.22 0.54 | 0.22 |
| 23 | KSQQSVPYEDRNKNSVA | EASTRCS | QDYHRLPLS | GP_Gibbs | 0.38 0.22 0.26 0.09 0.13 0.00 | 0.18 |
| 24 | KLPLATMQASVSKNNVA | ELSTRGS | QQYHRLPLS | En_HC | 0.86 0.80 0.41 0.75 0.41 0.76 | 0.67 |
| 25 | KLMEQFGHSMDHANNIA | HVDMLAQ | QQYMHLPLI | En_Gibbs | 0.68 0.61 0.78 1.08 1.02 1.42 | 0.93 |
| 26 | TISMSMNWLTFNKDNIA | EESKRED | QQYDRLPLS | En_HC | 1.44 1.76 0.93 0.95 1.10 1.17 | 1.22 |
| 27 | HMSMLTMMGMRQRNSVA | QMTMREN | QQYDRLPLT | En_Gen | 1.41 nd nd 1.38 1.14 nd | 1.31 |
| 28 | TIGAQLMYGTRNRSNVA | EVSQRLN | QQYDRLPLL | En_Gen | 1.63 2.28 1.63 1.46 1.01 1.50 | 1.58 |
| 29 | KMSQSWLYESRNKNSVA | HASTREQ | QQYHRLPLS | GP_HC | 0.26 -0.02 0.05 -0.22 -0.05 0.22 | 0.04 |
| 30 | TIAQVMNTLTREGNNVA | DLAERED | QQYFRLPLS | En_Gen | 2.15 1.87 nd 0.58 2.14 nd | 1.69 |
| 31 | KSDQSELEEQRNKNSVA | SASTRLS | QQYHRLPLS | GP_Gibbs | nd nd nd nd nd nd | nd |
| 32 | KISDSAAFLSRNRNSVA | DNSTRGS | QQYHRLPLS | En_HC | 0.51 0.49 0.70 0.72 0.72 0.90 | 0.67 |
| 33 | TIGAATFEESRNKNSVA | EMSLREN | QSYNRLPLS | En_HC | 0.74 1.08 0.84 1.31 0.70 0.97 | 0.94 |
| 34 | KLAQQTLYESRNKNSVA | WASTREE | QQYHRLPLS | GP_HC | nd 1.85 2.30 2.28 2.28 1.68 | 2.08 |
| 35 | RSSQSVEYESRNKNSVA | SAYTREP | QQYHRLPLS | Ctrl | 0.93 0.54 1.05 0.47 1.10 0.48 | 0.76 |
| 36 | KIGMGTNGEKFQSNSVA | QTSTREE | QQYHRLPLS | En_HC | 0.71 0.24 0.24 0.25 0.40 0.74 | 0.43 |
| 37 | DVSQSWLYESRNKNSVA | GASTRES | QQYHRLPLS | GP_HC | -0.01 -0.20 -0.21 -0.39 -0.23 -0.09 | -0.19 |
| 38 | TLVGNIQGGGWAKKNVA | DEVTRVN | QQYYRLPLS | En_Gibbs | 0.16 0.20 0.16 0.10 0.09 0.30 | 0.17 |
| 39 | QLEVFPLQGGSTTQAIA | DASHRTP | QQYSRLPLV | En_Gibbs | 0.06 0.02 0.03 -0.20 -0.04 0.01 | -0.02 |
| 40 | KSEQGFLYENRNKNSVA | SASQRES | QQYHRLPLS | GP_Gibbs | 0.30 0.12 0.06 -0.03 0.05 0.09 | 0.10 |
| 41 | TLTQVQGMETHNKNSVA | DLSTRGS | QQYHRLPLS | En_HC | 0.36 -0.07 0.40 -0.18 -0.03 0.37 | 0.14 |
| 42 | NLSMELEDATVKDMSIA | DAELSTM | QQYMRLPLS | En_Gibbs | 0.87 1.27 0.93 1.54 0.91 1.47 | 1.16 |
| 43 | NITQIFDNMGDQRSNVA | NGETLFH | QQYARLPLL | En_Gibbs | 0.87 0.56 0.41 0.51 0.49 0.63 | 0.58 |
| 44 | KSSSSVLYESRNKNSVA | NASTRED | FQYHHLPLS | Ctrl | 1.50 1.23 0.90 0.92 1.48 0.67 | 1.12 |
| 45 | KIQHLHYFESEGEWSVA | DANTSVL | QDYFRLPLS | En_Gibbs | 1.35 nd 1.74 nd 3.27 nd | 2.12 |
| 46 | KLSQVTEYESHMKNNVA | DLTTRGS | QDYHRLPLS | En_HC | 0.86 0.80 0.86 0.80 0.82 0.76 | 0.81 |
| 47 | TISMHTSLFSQTINNVA | EVSTRET | QQYDRLPLI | En_Gen | nd nd nd nd 2.28 nd | 2.28 |
| 48 | KVSQSVLYEAHNKNSVA | WASTRES | QQYHRLPLY | Ctrl | 1.21 1.17 1.38 1.39 1.26 1.54 | 1.32 |
| 49 | KFEQSWLYESRNVNSVA | QASTRMS | QQYHRLPLS | GP_Gibbs | 0.16 0.07 -0.04 -0.14 0.13 0.04 | 0.04 |
| 50 | KSDQGVLYESRNKNSVA | GASTRES | QQYHRLPLS | GP_HC | -0.18 -0.31 -0.30 -0.16 -0.14 -0.13 | -0.20 |
| 51 | KLAQSVLYESRNKNSVA | QASTRES | QQYHRLPLS | GP_Gen | -0.21 -0.27 -0.30 -0.66 -0.29 -0.31 | -0.34 |
| 52 | KLPQSQLYESRNKNSVA | EASTRES | QQYHRLPLS | GP_Gen | 0.18 0.14 -0.11 -0.15 -0.31 0.24 | 0.00 |

Excerpt, the final 9 entries:

{"CDR-L1": "KSSSSVLYESRNKNSVA", "CDR-L2": "NASTRED", "CDR-L3": "FQYHHLPLS", "group": "Ctrl", "log10 Kd, replicates": "1.50 1.23 0.90 0.92 1.48 0.67", "mean log10 Kd (nM)": "1.12"}
{"CDR-L1": "KIQHLHYFESEGEWSVA", "CDR-L2": "DANTSVL", "CDR-L3": "QDYFRLPLS", "group": "En_Gibbs", "log10 Kd, replicates": "1.35 nd 1.74 nd 3.27 nd", "mean log10 Kd (nM)": "2.12"}
{"CDR-L1": "KLSQVTEYESHMKNNVA", "CDR-L2": "DLTTRGS", "CDR-L3": "QDYHRLPLS", "group": "En_HC", "log10 Kd, replicates": "0.86 0.80 0.86 0.80 0.82 0.76", "mean log10 Kd (nM)": "0.81"}
{"CDR-L1": "TISMHTSLFSQTINNVA", "CDR-L2": "EVSTRET", "CDR-L3": "QQYDRLPLI", "group": "En_Gen", "log10 Kd, replicates": "nd nd nd nd 2.28 nd", "mean log10 Kd (nM)": "2.28"}
{"CDR-L1": "KVSQSVLYEAHNKNSVA", "CDR-L2": "WASTRES", "CDR-L3": "QQYHRLPLY", "group": "Ctrl", "log10 Kd, replicates": "1.21 1.17 1.38 1.39 1.26 1.54", "mean log10 Kd (nM)": "1.32"}
{"CDR-L1": "KFEQSWLYESRNVNSVA", "CDR-L2": "QASTRMS", "CDR-L3": "QQYHRLPLS", "group": "GP_Gibbs", "log10 Kd, replicates": "0.16 0.07 -0.04 -0.14 0.13 0.04", "mean log10 Kd (nM)": "0.04"}
{"CDR-L1": "KSDQGVLYESRNKNSVA", "CDR-L2": "GASTRES", "CDR-L3": "QQYHRLPLS", "group": "GP_HC", "log10 Kd, replicates": "-0.18 -0.31 -0.30 -0.16 -0.14 -0.13", "mean log10 Kd (nM)": "-0.20"}
{"CDR-L1": "KLAQSVLYESRNKNSVA", "CDR-L2": "QASTRES", "CDR-L3": "QQYHRLPLS", "group": "GP_Gen", "log10 Kd, replicates": "-0.21 -0.27 -0.30 -0.66 -0.29 -0.31", "mean log10 Kd (nM)": "-0.34"}
{"CDR-L1": "KLPQSQLYESRNKNSVA", "CDR-L2": "EASTRES", "CDR-L3": "QQYHRLPLS", "group": "GP_Gen", "log10 Kd, replicates": "0.18 0.14 -0.11 -0.15 -0.31 0.24", "mean log10 Kd (nM)": "0.00"}

The authors' rule: three or more of the six replicates give a measured affinity, fewer mean a poor binder. A sequence measured in both rounds can read differently, since the two assays cover different ranges.